Sequences of proteins named here, by UniProt entry; tags and fusion partners are left off. A change or cut given only in a name is not applied to a line headed by its entry.
UniProt Q9QYN8: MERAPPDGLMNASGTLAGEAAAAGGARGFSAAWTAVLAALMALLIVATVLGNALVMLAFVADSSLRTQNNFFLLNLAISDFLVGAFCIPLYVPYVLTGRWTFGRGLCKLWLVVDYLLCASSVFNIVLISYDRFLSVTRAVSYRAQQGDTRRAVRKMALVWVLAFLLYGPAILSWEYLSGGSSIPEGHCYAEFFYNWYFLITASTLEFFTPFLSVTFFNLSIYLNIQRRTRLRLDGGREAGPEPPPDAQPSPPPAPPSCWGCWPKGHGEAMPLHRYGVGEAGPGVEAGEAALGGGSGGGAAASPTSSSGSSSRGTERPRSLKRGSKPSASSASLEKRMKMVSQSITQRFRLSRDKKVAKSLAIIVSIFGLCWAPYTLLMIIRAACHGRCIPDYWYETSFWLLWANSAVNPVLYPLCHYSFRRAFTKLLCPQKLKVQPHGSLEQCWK

In ChEMBL document CHEMBL1129806, “Diastereoselective synthesis of trans-2-(1-triphenylmethyl-1H-imidazol-4-yl)cyclopropanecarboxylic acids: key intermediates for the preparation of potent and chiral histamine H3 receptor agents” (Bioorg Med Chem Lett, 1997):

Biological target: Histamine H3 receptor (Rattus norvegicus, UniProt Q9QYN8)
Test: Histamine H3 receptor affinity of compound was determined in rat cortical membranes using the H3 selective agonist ligand, [3H]N-alpha-methylhistamine
Type: cell membranes, Membrane

Ki: 0.04 µM
SMILES: O=C(CCCCC1CCCCC1)N1CCC(c2c[nH]cn2)CC1 [GT-2016]
